This is a sample that favours compounds with a hit; in the whole collection about 0.94% have one here.
Granule exo inh – blocks lytic granule exocytosis; TALL-104 LAMP-1 surface exposure, flow cytometry; cells stimulated with thapsigargin and PMA; inhibition, % at 10 µM; 360,000 compounds, 0.66% hits;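 active = inhibition above about 55%, limit read from the data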
PKA-R2B activ – PKA-R2B complex activation | PKA-R2B holoenzyme dissociation, Cy5-IP20 fluorescence polarization; R2B truncated from residue 108, S112A mutant; 0% DMSO only, 100% 113 µM cGMP | AID 504700 | 340,000 compounds, 0.079% hits | activation, % at 11.4 µM | P22694+P31323;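 active = activation above a cutoff set at the mean over all compounds plus 3 SD, cut at about 18% in these data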;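 note: higher means more holoenzyme dissociation and a rise in polarization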
pCIP destab – lowers stability of the mouse p/CIP coactivator protein | 290,000 compounds, 0.01% hits | decrease of EGFP signal, % at 10 µM | AID 1984 | F442A p/CIP-EGFP cells, EGFP fluorescence, 16 h;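 active = EGFP signal decrease of at least 30% at 10 µM or well 3 SD below plate mean, unless failing retest; inactive = the rest, including hits failing retest or dose response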
ABCB6 inh MLPCN – blocks the human ABCB6 transporter; fluorescence ratio to DMSO, % at 10 µM; K562-ABCB6 porphyrin accumulation, flow cytometry, 1 h; active compounds read low; 360,000 compounds, 0.19% hits;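 active = fluorescence ratio to DMSO below 75%, the collection mean minus 3 SD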;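 note: signal is porphyrin accumulated inside mitochondria; 100% equals median channel fluorescence of DMSO control wells; lower ratio means ABCB6 inhibition with less porphyrin fluorescence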
Yeast UUG start-1 – modulators of yeast start codon fidelity, primary screen, whole organism, S. cerevisiae, single point, plate reader; S. cerevisiae UUG-firefly luciferase reporter, luminescence/redox ratio; activity score, % at 18.7 µM; 0.13% of 350,000 active; AID 602363, 2012;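 active = replicate mean at a twofold rise or more, about +100% in these data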;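 also: firefly luciferase made from a UUG start codon reports start codon fidelity; reporter light over untreated wells divided by growth signal over untreated wells; some hits fall short of that in this replicate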
PKA-R1A activ – activators of PKA-R1A complex. activation, % at 11.4 µM. P00514+P68181. PKA-R1A dissociation, Cy5-IP20 fluorescence polarization; scaled: DMSO 0%, 113 µM cGMP 100%. 340,000 compounds, 0.083% hits. AID 504707;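 active = percent activation above the mean of all tested compounds plus 3 SD, cut at about 19% in these data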;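 note: higher means more PKAc released from R1A so a rise in polarization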
Yeast UUG start-2 – alters UUG start codon use in yeast; S. cerevisiae UUG-start firefly luciferase, luminescence, 4 h; 100% means double the DMSO signal; shares compounds with Yeast UUG start-1; AID 652061; 540 tested, under 10 active; activation, % at 38 µM;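 active = signal increase whose fitted curve reaches an absolute level of 40 at a concentration under 10 µM; inactive = activity opposite to the expected increase, or the rest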
Granule exo CP1 – lytic granule exocytosis inhibition; shares compounds with Granule exo inh; TALL-104 cells, LAMP-1 externalization, flow cytometry; stimulated with PMA plus thapsigargin; inhibition, % at 10 µM; 1,500 compounds, 11% hits; in the data active = inhibition above about 60%;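 note: 0% = stimulated vehicle wells and 100% = unstimulated wells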
Numbers without * were called inactive; / = not tested or not shown.

SMILES	Granule exo inh	PKA-R2B activ	pCIP destab	ABCB6 inh MLPCN	Yeast UUG start-1	PKA-R1A activ	Granule exo CP1	others
O=C(Nc1ccccc1F)OC1CN2CCC1CC2 (stereo not drawn)	4	-1	-2	99	165*	-2	/	Yeast UUG start-2=2
CCCCOC(=O)C1=C(N)OC2=C(C(=O)CCC2)[C@]12C(=O)Nc1ccccc12	3	5	4	96	125*	3	/	Yeast UUG start-2=0
O=C(Cc1cccnc1)N1CCCCN2[C@H](C1)[C@H](c1ccc(C#CC3(O)CCCC3)cc1)[C@@H]2CO	/	/	/	/	-8	/	/
COc1cc2c(cc1O)[C@@H]1Cc3ccc(OC)c(O)c3CN1CC2	3	8	/	94	3	2	/
CCCN1CCc2cc(O)cc3c2[C@H]1Cc1ccc(O)c(O)c1-3	65*	7	/	102	-9	4	-13
CN(C)C(=O)[C@H]1[C@H](CO)[C@H]2Cn3c(cccc3=O)[C@@H]1N2CC1CC1	/	/	/	/	-14	/	/
CCCC#Cc1ccc([C@@H]2[C@@H](CO)N3CCCCN(C(=O)Cc4ccccn4)C[C@@H]23)cc1	/	/	/	/	23	/	/
O=C(Cc1ccccn1)N1CCCCN2[C@@H](CO)[C@@H](c3ccc(-c4ccccc4)cc3)[C@@H]2C1	/	/	/	/	-4	/	/
O=C(Cc1cccnc1)N1CCCCN2[C@H](CO)[C@H](c3ccc(/C=C/c4ccccc4)cc3)[C@@H]2C1	/	/	/	/	-14	/	/
Cc1ccccc1CC(=O)N(CCN(C)C)CC1CCCN(Cc2ccccc2F)C1 (stereo not drawn)	62*	-1	11	90	10	-4	-5
CN(C(=O)Cc1ccc2c(c1)OCO2)C1CCCN(Cc2ccccc2F)C1 (stereo not drawn)	-5	4	/	95	3	2	/
CCOC(=O)[C@]12Cc3cc(Cl)ccc3[C@H]1N(C1CCCCC1)C(=O)c1ccccc12	83*	/	/	101	/	/	8
CCOC(=O)[C@]12Cc3cc(Cl)ccc3[C@H]1N(Cc1ccccc1)C(=O)c1cc(OC)ccc12	14	/	/	97	/	/	/
CCOC(=O)[C@]12Cc3cc(OC)ccc3[C@H]1N(C1CCCCC1)C(=O)c1ccccc12	67*	/	/	98	/	/	-10
CCOC(=O)[C@]12Cc3cc(OC)ccc3[C@H]1N(C)C(=O)c1ccccc12	0	/	/	97	/	/	/
CCCCCN1C(=O)c2cc(OC)ccc2[C@@]2(C(=O)OCC)Cc3cc(Cl)ccc3[C@@H]12	63*	/	/	101	/	/	0
C#CCOc1ccc2c(c1)c(C(C)=O)c(C)n2Cc1ccccc1	60*	-5	-16	91	7	-4	-4
CCOC(=O)c1c(C)n(Cc2ccccc2)c2ccc(OCC(O)CN3C(=O)CNC3=O)cc12 (stereo not drawn)	1	9	-1	97	-17	9	/
COc1ccc2ccc(O)c(CN3CC=C(c4ccccc4)CC3)c2c1	92*	-3	-3	98	/	-12	17
CC(C)Nc1ccc(Nc2ccccc2)cc1	100*	-5	/	106	-11	4	52
COc1ccc(-c2ccc3c(c2)CN(c2cccc(Cl)c2)Cc2cnnn2-3)cc1	88*	/	/	98	13	/	-12
Clc1cccc(N2Cc3cc(-c4ccccc4)ccc3-n3nncc3C2)c1	99*	/	/	99	-3	/	-13
CC(Cc1ccc(O)cc1)NCC(O)c1ccc(O)c(O)c1 (stereo not drawn)	66*	-6	/	99	-10	-7	-2
COC(=O)[C@@H]1[C@@H](CO)[C@@H]2Cn3c(cccc3=O)[C@H]1N2C(=O)C1CCC1	/	/	/	/	-5	/	/
O=c1[nH]c(=O)n(-c2ccc(F)cc2)c(O)c1/C=C1\C=Nc2ccccc21	56*	-17	0	109	0	-7	-3

The results go on:
SMILES	Granule exo inh	PKA-R2B activ	pCIP destab	ABCB6 inh MLPCN	Yeast UUG start-1	PKA-R1A activ	Granule exo CP1	others
O=C(O)[C@@H]1[C@@H](CO)[C@@H]2Cn3c(ccc(-c4ccncc4)c3=O)[C@H]1N2C(=O)C1CCC1	/	/	/	/	-38	/	/
Fc1cccc(CNCCc2c[nH]c3ccccc23)c1	7	0	0	99	-12	-9	/
Cc1cccc(CNCCc2c[nH]c3ccccc23)c1	80*	-9	4	98	-5	7	-11
CC(C)c1ccc(C2NCc3ccccc3-n3cccc32)cc1 (stereo not drawn)	39	1	-6	99	-2	-2	/
FC(F)(F)Oc1ccc(C2NCc3ccccc3-n3cccc32)cc1 (stereo not drawn)	59*	-13	4	98	2	-3	-15
CCOc1ccccc1CN1C2CCC1CC(c1ccc(C)cc1)C2 (stereo not drawn)	67*	5	-6	102	-25	1	-13
COC(=O)[C@@H]1[C@@H](CO)[C@@H]2Cn3c(ccc(-c4ccccc4)c3=O)[C@H]1N2CCc1ccccc1	/	/	/	/	-5	/	/
COC(=O)[C@@H]1[C@@H](CO)[C@@H]2Cn3c(cccc3=O)[C@@H]2N1CC1CC1	/	/	/	/	3	/	/

Quoted from the entries so far for reference:
SMILES	Granule exo inh	PKA-R2B activ	pCIP destab	ABCB6 inh MLPCN	Yeast UUG start-1	PKA-R1A activ	Granule exo CP1	others
FC(F)(F)Oc1ccc(C2NCc3ccccc3-n3cccc32)cc1 (stereo not drawn)	59*	-13	4	98	2	-3	-15
CCOc1ccccc1CN1C2CCC1CC(c1ccc(C)cc1)C2 (stereo not drawn)	67*	5	-6	102	-25	1	-13
COC(=O)[C@@H]1[C@@H](CO)[C@@H]2Cn3c(ccc(-c4ccccc4)c3=O)[C@H]1N2CCc1ccccc1	/	/	/	/	-5	/	/
COC(=O)[C@@H]1[C@@H](CO)[C@@H]2Cn3c(cccc3=O)[C@@H]2N1CC1CC1	/	/	/	/	3	/	/

From PubChem BioAssay
